Here are results for 5 substances from US11046680B1, “Heteroaryl-substituted triazoles as APJ receptor agonists” (priority 2016, dated 2021).

The chains behind the UniProt entries cited, without tags or fusion partners. Where a name states a change or a piece, a line headed by the entry shows the natural chain unless it says otherwise.
UniProt P35414: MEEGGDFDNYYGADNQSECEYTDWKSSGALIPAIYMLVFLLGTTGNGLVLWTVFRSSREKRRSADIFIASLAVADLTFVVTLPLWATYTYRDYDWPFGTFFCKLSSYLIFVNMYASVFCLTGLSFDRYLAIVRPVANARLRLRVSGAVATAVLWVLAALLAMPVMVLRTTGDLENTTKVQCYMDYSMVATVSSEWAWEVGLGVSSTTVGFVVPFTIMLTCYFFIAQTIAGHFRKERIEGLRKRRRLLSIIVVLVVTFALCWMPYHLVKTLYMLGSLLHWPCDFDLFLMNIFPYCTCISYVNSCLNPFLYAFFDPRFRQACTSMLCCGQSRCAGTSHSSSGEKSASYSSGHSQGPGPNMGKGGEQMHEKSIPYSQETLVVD

This test has as its target human APJ receptor (Homo sapiens (Human), UniProt P35414). It counts as biochemical. The conditions noted are these: [35S]GTPγS binding, CHO membranes expressing human APJ receptor; read-out: Activity hAPJ SPA EC50 IP. How it is done: The human APJ receptor was cloned by polymerase chain reaction and the gene encoding the receptor was subcloned in pFLAG-CMV™-3 expression vector (Sigma, Saint Louis, Mo. USA) in-house at Amgen. A GTPγS binding assay was performed on membranes prepared from CHO cells stably expressing human APJ receptor. The optimum experimental conditions for the concentrations of GDP, MgCl2, and NaCl in the assay buffer were initially determined. […] Incubation was at RT for 90 min and the microplate was read using a ViewLux™ ultra HTS Microplate Imager (PerkinElmer, Inc.).
As usually defined, the EC50 is the concentration that produces a half-maximal response. Take “(1R,2R)-1-(5-chloro-1,3-thiazol-2-yl)-N-(4-(2,6-dimethoxyphenyl)-5-(5-methyl-1H-pyrazol-3-yl)-4H-1,2,4-triazol-3-yl)-1-methoxy-2-propanesulfonamide or (1S,2S)-1-(5-chloro-1,3-thiazol-2-yl)-N-(4-(2,6-dimethoxyphenyl)-5-(5-methyl-1H-pyrazol-3-yl)-4H-1,2,4-triazol-3-yl)-1-methoxy-2-propanesulfonamide [Example 278.0]”: the EC50 worked out at 9.5 nM.

For the substance “(2S)-N-(4-(2,6-dimethoxyphenyl)-5-(1,3-oxazol-2-yl)-4H-1,2,4-triazol-3-yl)-1-(5-fluoro-2-pyrimidinyl)-2-propanesulfonamide or (2R)-N-(4-(2,6-dimethoxyphenyl)-5-(1,3-oxazol-2-yl)-4H-1,2,4-triazol-3-yl)-1-(5-fluoro-2-pyrimidinyl)-2-propanesulfonamide [Example 184.0]”, the EC50 was 150 nM. To “(R)-N-(4-(2,6-dimethoxyphenyl)-5-(pyridazin-4-yl)-4H-1,2,4-triazol-3-yl)-1-(5-fluoropyrimidin-2-yl)propane-2-sulfonamide or (S)-N-(4-(2,6-dimethoxyphenyl)-5-(pyridazin-4-yl)-4H-1,2,4-triazol-3-yl)-1-(5-fluoropyrimidin-2-yl)propane-2-sulfonamide [Example 51.0]” belongs 300 nM; to “(1R,2S)-N-(4-(2,6-dimethoxyphenyl)-5-(1-methyl-1H-pyrazol-3-yl)-4H-1,2,4-triazol-3-yl)-1-(5-fluoropyridin-2-yl)-1-methoxypropane-2-sulfonamide or (1S,2R)-N-(4-(2,6-dimethoxyphenyl)-5-(1-methyl-1H-pyrazol-3-yl)-4H-1,2,4-triazol-3-yl)-1-(5-fluoropyridin-2-yl)-1-methoxypropane-2-sulfonamide [Example 27.0]”, 16 nM; to “(R)-2-(5-Chloropyridin-2-yl)-N-(4-(2,6-dimethoxyphenyl)-5-(1-methyl-1H-pyrazol-3-yl)-4H-1,2,4-triazol-3-yl)-2-hydroxyethanesulfonamide or (S)-2-(5-chloropyridin-2-yl)-N-(4-(2,6-dimethoxyphenyl)-5-(1-methyl-1H-pyrazol-3-yl)-4H-1,2,4-triazol-3-yl)-2-hydroxyethanesulfonamide [Example 367.0]”, 1.1 nM.
